Assay results as given in patent US6340461B1 (priority 1996, dated 2002).

Experiments:
[1] = system: MCA 205 pulmonary metastases; parameters: species or system C57BL/6 mice; settings: mouse
[2] = system: MCA 207 pulmonary metastases; parameters: species or system mice; settings: mouse, in vivo

IL-2: interleukin 2, given alone in vivo as control
tumor killing in vivo [1]: ineffective
Mean No. Metastases (SE) ([1]; in vivo): 250 and 248
Mean number of Metastases (SE) ([1]; in vivo): 250
Mean number of Metastases (SE) [2]: 200

Several values for one entry are separate records, joined by “and”; a condition that tells them apart may be missing. Identical values can stand only once.
